# Target: Ps-Mn-SOD (Paelopatides sp. YL-2018, UniProt A0A411L1L4)
# Sequences of proteins named here, by UniProt entry; tags and fusion partners are left off. Residues count along the entry.
# UniProt A0A411L1L4, 22-255 limits assumed: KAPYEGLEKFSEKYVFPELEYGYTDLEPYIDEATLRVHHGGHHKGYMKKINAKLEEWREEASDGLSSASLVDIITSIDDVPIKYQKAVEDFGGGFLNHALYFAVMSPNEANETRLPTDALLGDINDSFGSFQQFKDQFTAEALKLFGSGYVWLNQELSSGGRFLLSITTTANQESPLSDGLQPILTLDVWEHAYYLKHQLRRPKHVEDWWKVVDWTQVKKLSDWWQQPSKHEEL
# Experiment: residual SOD activity, SOD assay kit, […] nm
# Conditions: pre-incubated 1 h at 25 °C; SOD type test
structure (smiles),measurement,value
[N-]=[N+]=N,relative activity at 10 mM,90.39%

# Source: publication PMC6410416 (Marine Drugs, 2019)
